Data taken from PubChem BioAssay AID2676 (National Center for Advancing Translational Sciences (NCATS), 2010).
Where “and” joins values, the source holds several entries; their conditions need not be identical. Equal entries are not always repeated. The entries are a selection whose mix differs from that of the whole data set. Some results for these compounds are left out of this collection, so the calls shown say nothing about other tests. Calls of active or inactive are those of the source. The call rests on the fitted dose curve; in most records, active means well fitted activation curve with a large enough effect; inconclusive means small, poorly fitted or top-dose-only effect; inactive means flat fitted curve, though single readings scatter.

By UniProt entry, the sequences of proteins in these tests, tags left out.
UniProt Q9HBX9, whole entry: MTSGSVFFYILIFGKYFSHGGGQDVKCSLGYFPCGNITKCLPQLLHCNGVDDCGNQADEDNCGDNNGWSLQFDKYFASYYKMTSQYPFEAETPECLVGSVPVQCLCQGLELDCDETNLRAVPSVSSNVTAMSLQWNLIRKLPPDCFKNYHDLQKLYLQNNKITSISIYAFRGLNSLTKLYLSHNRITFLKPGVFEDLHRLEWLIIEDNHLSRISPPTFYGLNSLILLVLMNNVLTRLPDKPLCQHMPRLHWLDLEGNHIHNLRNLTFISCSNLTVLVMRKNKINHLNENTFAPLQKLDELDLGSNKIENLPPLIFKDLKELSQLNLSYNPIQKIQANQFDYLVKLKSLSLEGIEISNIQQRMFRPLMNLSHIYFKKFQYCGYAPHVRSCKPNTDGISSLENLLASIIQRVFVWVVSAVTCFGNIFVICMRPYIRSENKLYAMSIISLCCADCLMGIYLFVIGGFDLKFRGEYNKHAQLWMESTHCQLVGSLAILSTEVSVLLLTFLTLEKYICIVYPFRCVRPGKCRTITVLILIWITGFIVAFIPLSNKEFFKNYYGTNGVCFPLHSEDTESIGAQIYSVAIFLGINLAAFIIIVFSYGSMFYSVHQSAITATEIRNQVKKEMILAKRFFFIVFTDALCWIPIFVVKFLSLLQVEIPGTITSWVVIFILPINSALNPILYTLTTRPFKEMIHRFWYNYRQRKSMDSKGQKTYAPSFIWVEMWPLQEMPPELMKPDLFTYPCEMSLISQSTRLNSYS

These molecules were tested against Relaxin receptor 1 (Homo sapiens) (UniProt Q9HBX9) (assay: qHTS Assay for Agonists of the Relaxin Receptor RXFP1). Details: HEK293T-RXFP1 cAMP TR-FRET, 30 min, percent of porcine relaxin response, buffer zero; at 57.5 µM (top of the series).
From the text: NIH Chemical Genomics Center [NCGC] NIH Molecular Libraries Probe Production Centers Network [MLPCN] MLPCN Grant: R03 MH085705-01A1 Assay Submitter (PI): Alexander Agoulnik NCGC Assay Overview: The relaxin hormone is involved in the variety of biological functions in normal tissues and diseases. The role of relaxin is well-established in female reproduction and parturition, mammary gland and endometrial development, maintenance of myometrial quiescence during pregnancy. Relaxin signaling through its G protein-coupled receptor (GPCR) RXFP1 results in ECM remodeling through regulation of collagen deposition, cell invasiveness, proliferation and overall tissue homeostasis. […] Recombinant human relaxin (rhRlx) is currently being tested in clinical trials as a protective agent in congestive heart failure, in treating severe preeclampsia, and as an anti-fibrotic agent in systemic sclerosis. Upon relaxin binding RXFP1 activation leads to the activation of adenylate cyclase (AC) via Gs. cAMP will activate PKA, which phosphorylates many signaling proteins. Thus, detection of cAMP increase is an easy and reliable indication of relaxin receptor activation. To screen for agonists of the relaxin receptor, a HEK293T cell line stably transfected with RXFP1 was used. RXFP1 activation was assayed by changes in cAMP levels as detected with a time-resolved fluorescence energy transfer (TR-FRET) cAMP detection kit.
NCGC Assay Protocol Summary: This is a cell-based assay for cAMP second messenger response to screen for agonists of the RXFP1 receptor. The assay was conducted in the presence of a PDE4 inhibitor (Ro 20174). The cells were lysed and the cAMP levels were measured with a TR-FRET cAMP kit. Presence of cAMP in the cell lysate disrupts binding between the cryptate-labeled anti-cAMP and d2-labeled cAMP pair, leading to a decrease in the TR-FRET signal. Data were normalized to the controls for basal activity (buffer only) and 100% activity (29 nM porcine relaxin). The EC50 values were determined from concentration-response data modeled with the standard Hill equation 1536-well assay protocol for the HEK293 RXFP1 cAMP assay: (1) Add 3 ul HEK293 RXFP1 cell culture. 2000 cells/well in DMEM/F12, 10% FBS, 1x Pen/Strep (dispensed offline with MultiDrop Combi). (2) Incubate 16-24 hr at 37C, 5% CO2. (3) Add 1 ul 400uM Ro20174 in DPBS, 0.05% BSA, 0.005% Tween 20. (3) Add 23 nl compounds in DMSO solution. Final concentration was 0.5 - 58 uM. (4) Incubate 30 min at 37C, 5% CO2. (5) Add 1 ul cAMP-d2 in lysis buffer (HTRF cAMP HiRange kit, CisBio). (6) Add 1 ul anti-cAMP antibody-cryptate in lysis buffer (HTRF cAMP HiRange kit, CisBio). (7) Incubate 30 min at room temperature. (6) Detect the assay plate in a ViewLux plate reader (PerkinElmer) with Ex=320 nm, Em1=615 nm and Em2=665 nm. Keywords: relaxin, RXFP1, RXFP2, G-protein coupled receptor, cAMP, agonist, high throughput screening, MLSMR, MLSCN, NIH Roadmap, qHTS and NCGC
Further: nearly all actives have a fitted effect of over 60% in size.
On the % scale 0 is the no-effect control and ±100 the full control effect.

Row | Structure (SMILES) | activation
1 | CCCCOc1ccccc1C(=O)NCC1(N(C)C)CCCCC1 | inactive: -2.09%
2 | Cc1ccccc1C(=O)NCC1(N2CCCCC2)CCCCC1 | inactive: 3.34%
3 | CN(C)C1(CNC(=O)c2ccccc2[N+](=O)[O-])CCCCC1 | inactive: 3.28%
4 | CN(C)c1ccc(C(=O)NCC2(N(C)C)CCCCC2)cc1 | inactive: -0.58%
5 | CN(C)C1CCCC1OC(=O)C(O)(c1ccccc1)c1ccccc1 (centres undefined) | inactive: 1.77%
6 | COc1ccc(C(=O)NCC2(N(C)C)CCCCC2)cc1 | inactive: -17.3%
7 | CCOc1cccc(C(=O)NCC2(N(C)C)CCCCC2)c1 | inactive: -0.731%
8 | CCN1CCCC(OC(=O)C2(O)c3ccccc3C=Cc3ccccc32)C1 (centres undefined) | inactive: -0.0317%
9 | Cc1cc(C(=O)NCC2(N3CCCCC3)CCCCC2)ccc1[N+](=O)[O-] | inactive: 0.472%
10 | O=C(NCC1(N2CCCCC2)CCCCC1)c1cccc(Br)c1 | inactive: -0.64%
11 | C=CCN1CCN(CCOC(=O)C(O)(c2ccccc2)c2ccccc2)CC1 | inactive: 4.11%
12 | O=C(NCC1(N2CCCCC2)CCCCC1)c1cc(F)c(F)cc1Cl | inactive: -1.46%
13 | CN1[C@@H]2CC[C@H]1CC(OC(=O)C(O)(c1ccccc1)c1ccccc1)C2 (some centres undefined) | inactive: 3.53%
14 | O=C(NCC1(N2CCCCC2)CCCCC1)c1cc([N+](=O)[O-])ccc1Cl | inactive: 0.533%
15 | Cc1ccc(C(=O)NCC2(N3CCCCC3)CCCCC2)cc1 | inactive: 0.355%
16 | CN(C)C1(CNC(=O)c2ccccc2F)CCCCC1 | inactive: 0.883%
17 | CCN(CC)CC(C)C(C)OC(=O)C(O)(c1ccccc1)c1ccccc1 (centres undefined) | inactive: -3.15%

Row | Structure (SMILES) | activation
18 | CN(C)C1(CNC(=O)c2cccc(Cl)c2)CCCCC1 | inactive: 0.151%
19 | COc1cc(SC)ccc1C(=O)NCC1(N(C)C)CCCCC1 | inactive: -0.441%
20 | CC(C)N1C(=O)CC2(CCN(CCOC(=O)C(O)(c3ccccc3)c3ccccc3)CC2)C1=O | inactive: 3.7%
21 | CC(C)COc1ccc(C(=O)NCC2(N(C)C)CCCCC2)cc1 | inactive: 0.253%
22 | COc1cccc(C(=O)NCC2(N3CCOCC3)CCCCC2)c1 | inactive: 0.912%
23 | O=C(OC1CN2CCC1CC2)C(CO)(c1ccccc1)c1ccccc1 (centres undefined) | inactive: -0.951%
24 | CC(C)Oc1ccc(C(=O)NCC2(N(C)C)CCCCC2)cc1 | inactive: -0.563% and inactive: 0%
25 | CN(C)c1cccc(C(=O)NCC2(N(C)C)CCCCC2)c1 | inactive: 0.852%
26 | Cc1cccc(C(=O)NCC2(N(C)C)CCCCC2)c1 | inactive: 0.556%
27 | COc1cc(C(=O)NCC2(N(C)C)CCCCC2)cc(OC)c1OC | inactive: 0.415%
28 | COc1ccc(Br)c(C(=O)NCC2(N3CCCCC3)CCCCC2)c1 | inactive: -0.156%
29 | COc1cc(C(=O)NCC2(N(C)C)CCCCC2)c([N+](=O)[O-])cc1OC | inactive: 0.107%
30 | CN(C)C1(CNC(=O)c2ccc(Br)cc2)CCCCC1 | inactive: 4.46%
31 | O=C(NCC1(N2CCCCC2)CCCCC1)c1cccc(Cl)c1 | inactive: -0.413%
32 | COc1cccc(C(=O)NCC2(N3CCCCC3)CCCCC2)c1 | inactive: -1.14%
33 | COc1ccc(Cl)cc1C(=O)NCC1(N(C)C)CCCCC1 | inactive: 0.177%
34 | COc1ccc(C(=O)NCC2(N(C)C)CCCCC2)cc1Cl | inactive: 0.279%
